Consider three compounds from ChEMBL document CHEMBL1140442, “Potent cannabinergic indole analogues as radioiodinatable brain imaging agents for the CB1 cannabinoid receptor” (J Med Chem, 2005).

By UniProt entry, the sequences of proteins in these tests, tags left out. Where a name states a change or a piece, a line headed by the entry shows the natural chain unless it says otherwise.
UniProt P47936: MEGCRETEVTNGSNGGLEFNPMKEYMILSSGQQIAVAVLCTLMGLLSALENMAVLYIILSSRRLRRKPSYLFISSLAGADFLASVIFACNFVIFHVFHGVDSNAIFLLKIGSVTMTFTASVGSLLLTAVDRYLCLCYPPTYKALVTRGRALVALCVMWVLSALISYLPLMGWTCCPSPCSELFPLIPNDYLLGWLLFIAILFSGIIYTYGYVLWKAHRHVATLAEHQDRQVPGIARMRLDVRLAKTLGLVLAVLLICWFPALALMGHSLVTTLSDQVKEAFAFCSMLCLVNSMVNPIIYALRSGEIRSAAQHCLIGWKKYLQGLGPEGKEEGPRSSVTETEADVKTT
UniProt P20272, whole entry: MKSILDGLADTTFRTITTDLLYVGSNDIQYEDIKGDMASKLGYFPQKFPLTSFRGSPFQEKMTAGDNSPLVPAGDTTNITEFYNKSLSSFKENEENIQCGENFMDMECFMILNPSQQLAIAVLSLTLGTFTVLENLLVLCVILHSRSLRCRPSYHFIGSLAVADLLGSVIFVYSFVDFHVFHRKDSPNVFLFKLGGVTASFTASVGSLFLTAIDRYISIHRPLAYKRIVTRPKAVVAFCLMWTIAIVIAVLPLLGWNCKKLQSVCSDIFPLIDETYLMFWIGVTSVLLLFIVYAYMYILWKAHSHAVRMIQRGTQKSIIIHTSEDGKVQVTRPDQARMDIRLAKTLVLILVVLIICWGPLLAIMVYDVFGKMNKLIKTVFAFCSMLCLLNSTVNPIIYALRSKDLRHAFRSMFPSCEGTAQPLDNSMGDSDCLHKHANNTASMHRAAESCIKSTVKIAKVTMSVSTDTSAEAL

One experiment has as its target Cannabinoid receptor 2 (Mus musculus, UniProt P47936). Description: Binding affinity towards mouse spleen cannabinoid receptor 2 using [3H]CP-55940. The experiment is classed as tissue-based.
The target in another experiment is Cannabinoid receptor 1 (Rattus norvegicus, UniProt P20272). Description: Binding affinity towards rat forebrain cannabinoid receptor 1 using [3H]CP-55940.

One may read the Ki as a measure of affinity in units of concentration, obtained from inhibition or displacement. Read a high Ki as a looser hold on the target. With `CN1CCCC[C@H]1Cn1cc(C(=O)c2ccccc2I)c2ccccc21`, the Ki on Cannabinoid receptor 2 amounted to 580 nM.

Regarding `CN1CCCC[C@@H]1Cn1cc(C(=O)c2ccccc2I)c2ccccc21`, on Cannabinoid receptor 2, the inhibitory constant (Ki) is 2.2 nM. This Ki lies about 260-fold lower than the previous one.

Consider `CN1CCCCC1Cn1cc(C(=O)c2ccccc2I)c2ccccc21` (centres undefined), for which the Ki at Cannabinoid receptor 2 was found to be 2.9 nM; at Cannabinoid receptor 1, 2.8 nM.
